Assay outcomes (PubChem)
An excerpt weighted towards active compounds, which were near 2.2% of everything screened.
Nrf2 ARE act = Nrf2 pathway activation. AREc32 ARE-luciferase reporter (MCF7-derived line), luminescence, 24 h. Potency, µM (titrated, usually from 46.1 µM), actives largely listed as activators. 410,000 tested, 0.31% active. AID 624171; note: nearly all actives have a fitted effect of over 65% in size
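Cells of the AREc32 ARE-luciferase line are plated in OPTI-MEM containing 5% FBS and left overnight at 37 deg C. Compounds are pinned in, incubation continues 24 hr, and firefly luciferase signal is then measured.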
A549 tox = counter-screen for Nrf2 inhibitors: cytotoxicity in A549 cells; A549 ARE-Fluc cells, CellTiter-Fluor viability, 18-24 h; Potency, µM (highest dose often 46 µM), usual class: inhibitors; 390,000 tested, 0.16% active
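A549 ARE-Fluc cells in 5% FBS OPTI-MEM, 5000 cells/well, rested 2 h then exposed to compounds in concentration-response for 18-24 h at 37 °C. Viability by CellTiter-Fluor fluorescence (Ex 405/Em 525) after 30 min; luciferase luminescence (BugLite, 15 min, RT) read afterwards.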
B2AR arrestin = agonists driving beta-arrestin recruitment to human beta2-adrenergic receptor | 330,000 tested, 0.02% active | AID 492947 | beta-arrestin recruitment to beta2AR, cell-based reporter | Potency, µM (titrated, usually from 46.1 µM), hits mostly activators | P07550; note: nearly all actives have a fitted effect of over 65% in size
Nrf2 inh = Nrf2 pathway inhibition; A549 ARE-Fluc reporter, luciferase luminescence, 18-24 h; Potency, µM (titrated, usually from 46 µM), most hits filed as inhibitors; 360,000 tested, 2.1% active; AID 504444; note: nearly all actives have a fitted effect of over 60% in size
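Nrf2 function is reported as luminescence of an ARE-controlled luciferase in A549 cells. Compounds were tested at several concentrations, and a CellTiter-Fluor read on the same wells flagged cytotoxicity.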
miR-21 reporter = miR-21 reporter, rising signal; HeLa miR-21 FLuc reporter, luciferase, 48 h; Potency, µM (titrated, usually from 38.3 µM); AID 2288; 340,000 tested, under 10 active; active = well fitted rising curve with a large enough effect; inconclusive = small, poorly fitted or top-dose-only effect; inactive = no such curve, though single readings can be large or run the other way;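 further: miR-21 action dims this reporter so a rising signal means less miR-21 action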
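Compounds were titrated across several concentrations (up to approximately 40 uM) and incubated 48 hours with HeLa miR-21-FLuc reporter cells (miR-21 target sequence downstream of FLuc, endogenous miR-21). Readout was firefly luciferase luminescence after lytic detection reagent.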
Numbers stand for hits; n = inactive; u = inconclusive; x = no result; [ ] = dose if it differs, or a comment. Unless noted, calls come from the whole dose curve; as a rule, active = well fitted curve in the direction sought with a large enough effect; inconclusive = small, poorly fitted or top-dose-only effect, or another doubt; inactive = no such curve, though single readings can be large; an effect the other way counts as inactive or inconclusive.

SMILES | Nrf2 ARE act | A549 tox | B2AR arrestin | Nrf2 inh | miR-21 reporter
CCOc1ccc(-c2noc(CCC(=O)O)n2)cc1 | n | n | n | 3.3µM | u
COc1ccc(Br)cc1CNC(=O)c1cnc2sc(N3CCCCCC3)nn2c1=O | n | n | x | n | n
COc1ccccc1C1NC(c2ccc3c(c2)OCO3)=CC(c2cc(Br)ccc2O)N1 (stereo unspecified) | x | n | x | u | x
Cc1cc(N2CCC(C(=O)N3CCN(c4cccc(C)c4C)CC3)CC2)n2ncnc2n1 | n | n[1.84 µM] | n | 15µM | n
Cc1cccc(N2CCN(C(=O)C3CCN(c4ncnc5c4nc4n5CCCCC4)CC3)CC2)c1C | n | u | n | 21µM | u
Cc1ccc(N2CCN(C(=O)C3CCCN(c4ncnc5c4nc4n5CCCCC4)C3)CC2)c(C)c1 (stereo unspecified) | n | n | n | n | n
Cc1ccc(NC(=O)C2CCN(c3ncnc4c3nc3n4CCCCC3)CC2)cc1Cl | n | u | n | 13µM | n
Cc1ccc(C)c(N2CCN(C(=O)C3CCCN(c4ncnc5c4nc4n5CCCCC4)C3)CC2)c1 (stereo unspecified) | n | n | n | 15µM | n
O=C1CCCc2cc(S(=O)(=O)NCC3CCC(C(=O)Nc4ccc(Cl)cc4)CC3)ccc2N1 (stereo unspecified) | n | n | x | x | n
Cc1cccc(N2CCN(C(=O)C3CCN(c4ncnc5c4nc4n5CCCCC4)CC3)CC2C)c1 (stereo unspecified) | n | u | n | 18µM | u
CCN(C(=O)C1CCN(c2nc(-c3ccc(OC)cc3)no2)CC1)c1ccc(OC)cc1 | n | n | n | 13µM | n
COc1ccc(-c2noc(N3CCC(C(=O)N4CCN(c5ccccn5)CC4)CC3)n2)cc1 | n | n | n | 18µM | u
COc1ccc(-c2noc(N3CCC(C(=O)N4CCN(c5ccccc5OC)CC4)CC3)n2)cc1 | n | n | x | x | n
COc1ccc(NC(=O)C2CCN(c3nc(-c4ccc(OC)cc4)no3)CC2)cc1 | n | n | n | n | n
O=C(NCc1ccco1)c1ccc(COc2cccc3ccccc23)cc1 | n | n | n | 16µM | n
CNc1ccc(Br)cc(C(=O)/C=C/c2cccc(Cl)c2Cl)c1=O | 7.9µM | n | n | n | n
CCOc1ccc(CNC(=O)Cc2ccc(NC(=O)N3CCSc4ncccc43)cc2)cc1 | n | n | x | n | n
COc1ccc(-c2noc(CSc3nnc(Cc4ccccc4)n3-c3cccc(C)c3)n2)cc1 | n | u | x | 23µM | n
Cc1ccc2nc(/N=C(\N)NC(=O)NC3CCCCC3)nc(C)c2c1 | n | 23µM | n | 8.2µM | n
CCCC(=O)N/C(N)=N/c1nc(C)c2cc(C)ccc2n1 | n | n | n | u | n
CCOc1ccc(NC(=O)CSc2nnc3c(n2)[nH]c2ccc(S(=O)(=O)N(C)C)cc23)cc1 | x | n | x | n | x
CCc1c(C)nc2ncnn2c1N1CCC(C(=O)Nc2ccc(C)cc2)CC1 | n | n[1.84 µM] | n | 13µM | n
CCOC(=O)c1ccc(Nc2c(CC)c(C)nc3ncnn23)cc1 | n | n | n | 26µM | n
CCc1c(C)nc2ncnn2c1Nc1ccc(C(C)=O)cc1 | n | n | n | n | n
Cc1ccc(-n2c(-c3ccccc3)c[n+]3c2CCc2ccccc2-3)c(C)c1 | n | u | n | 4.1µM | u
SMILES | Nrf2 ARE act | A549 tox | B2AR arrestin | Nrf2 inh | miR-21 reporter
Cc1ccc(-n2c(SCC(=O)N3CCCc4ccccc43)nnc2-c2cccnc2)c(C)c1 | n | n | n | n | n
COc1ccc(C(=O)NNC(=S)NC(=O)c2cc(-c3ccccc3)nc3ccccc23)cc1 | n | u | n | 18µM | n
CCCOc1ccc(C(=O)NNC(=S)NC(=O)c2cc(-c3ccc(Cl)cc3)nc3ccccc23)cc1 | n | n | n | 4.6µM | n
CCNC(=S)NNC(=O)c1cc(-c2ccc(OCC)cc2)nc2ccccc12 | n | n | n | x | u
CC(=O)Nc1cccc(OC2=NS(=O)(=O)c3ccccc32)c1 | x | n | x | u | x
CCCCN(Cc1cccs1)S(=O)(=O)c1cc(-c2cc(C)no2)ccc1C | n | n | x | n | n
CN(c1ccccc1)S(=O)(=O)c1cccc(NC(=O)C2=NN(c3ccccc3)C(=O)CC2)c1 | n | n | n | 21µM | x
CN(c1ccccc1)S(=O)(=O)c1cccc(NC(=O)c2ccncc2)c1 | n | n | n | u | n
COc1ccc(NS(=O)(=O)c2cccc(NC(=O)C3=NN(c4ccccc4)C(=O)CC3)c2)cc1 | n | n | n | n | n
CSc1ncccc1C(=O)Nc1cccc(S(=O)(=O)N(C)c2ccccc2)c1 | n | n | n | 12µM | x
CCc1ccc(NC(=O)c2sc3nc(C)cc(C)c3c2NC(=O)c2ccccc2OC)cc1 | n | n | x | n | n
Cc1nnc(SCC(=O)N2CCOCC2)c2ccccc12 | u | n | n | 9.2µM | n
O=C(CSc1nc2ccccc2nc1SCC(=O)N1CCOCC1)N1CCOCC1 | n | n | n | n | n
CC/C(=N\Nc1ccc([N+](=O)[O-])cc1)c1ccccc1 | n | u | n | 21µM | n
N#CN1CCC(NS(=O)(=O)c2cccc(C(F)(F)F)c2)CC1 | x | n | x | n | x
N=C1/C(=C\c2ccc(OC(=O)c3ccccc3)cc2)C(=O)N=C2SC(N3CCOCC3)=NN12 | n | n | n | n | n
Cc1ccc(C(=O)Oc2ccc(/C=C3\C(=N)N4N=C(N5CCOCC5)SC4=NC3=O)cc2)cc1 | n | n | n | 7.3µM | n
COc1ccc(-c2nc3ccccc3n2Cc2ccccc2)cc1COc1ccc(NC(C)=O)cc1 | x | n | x | u | x
O=C(Nc1ccc(N2CCCCC2)c(Cl)c1)c1ncn[nH]1 | n | n | n | 8.2µM | n
N#Cc1nc(Nc2cc(F)cc(F)c2)c2ncn(CCO)c2n1 | x | n | x | n | x
O=C(C1c2ccccc2Oc2ccccc21)N1CCN(c2ccc(Cl)cc2)CC1 | n | u | n | 26µM | n
COc1ccccc1N1CCN(C(=O)C2c3ccccc3Oc3ccccc32)CC1 | n | u | n | n | n
CO[C@@]12[C@@H]3N[C@@H]3CN1C1=C(C(=O)C(N)=C(C)C1=O)[C@@H]2COC(N)=O | n | u | x | 10µM | x
CO[C@@]12[C@H](COC(N)=O)C3=C(C(=O)C(C)=C(N)C3=O)N1C[C@@H]1N[C@@H]12 | n | n | n | u | x
Cc1ccc2c(CN3CCCCC3)cc(=O)oc2c1C | n | n | n | n | n
Cc1ccc2c(CN3CCN(S(=O)(=O)c4ccccc4C(F)(F)F)CC3)cc(=O)oc2c1C | n | n | n | 5.2µM | x
Cc1sc2ncn(CC(=O)N3CCN(c4ccc(F)cc4)CC3)c(=O)c2c1S(=O)(=O)N1CCC(C)CC1 | n | n | x | n[9.27 µM] | n
Cc1sc2ncn(CCn3cnc4sc(C)c(C)c4c3=O)c(=O)c2c1C | n | n | n | 16µM | n
Cc1sc2ncn(CC(=O)NCC(=O)N3CCN(c4ccc(F)cc4)CC3)c(=O)c2c1C | n | n | n | 8.2µM | n
COc1cc(SC)ccc1C(=O)Nc1ccccn1 | 13µM | n | n | u | n
